# Apparent affinities of Ab-91 variants for a coronavirus HR2 peptide

Values reported by Engelhart et al. 2022, doi:10.1038/s41597-022-01779-4 (FLAb copy).

All variants were tested on one target, the spike HR2 peptide PDVDLGDISGINAS (SARS-CoV-2).

Parent scFv Ab-91: VL joined to VH by the linker GGGGSGGGGSGGGGS. Changes lie in the heavy chain CDRs alone.
VL: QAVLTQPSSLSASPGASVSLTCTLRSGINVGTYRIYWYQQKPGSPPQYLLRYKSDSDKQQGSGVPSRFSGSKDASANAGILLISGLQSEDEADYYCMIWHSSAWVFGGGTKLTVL
VH: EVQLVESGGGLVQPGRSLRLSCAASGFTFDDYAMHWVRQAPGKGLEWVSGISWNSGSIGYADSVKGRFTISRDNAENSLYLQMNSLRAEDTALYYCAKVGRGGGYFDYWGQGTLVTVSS

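The starting antibody came from a phage panning campaign against this peptide. The library (AAYL51) carries one to three amino acid substitutions per variant, with no insertions or deletions. In AlphaSeq, yeast of one mating type display the scFv and yeast of the other type display the target. Mating (16 h, 30 °C) was followed by selection of diploids and sequencing of their barcodes. Each replicate has its own calibration line, from reference interactions of the BCL2 family. Each pool was mated in three replicate cultures.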

Changes read parent residue, position, new residue, counted from the first residue of the VH shown.
The read-out is the apparent dissociation constant on a log10 scale (nM): the lower, the stronger.
Where no diploid with the target was found in that replicate, the entry reads "nd": below detection, most likely a poor binder, though not proof of it.
Three control strains display no target. For library AAYL51, 21% of the pairings with them gave a signal, with a median of 4.54 and one signal in twenty below 3.26, so weak values seen in few replicates may be background. For each scFv, signals with the empty controls are counted beside the result, with their mean in brackets.

changes	log10 Kd, replicates	signal with controls
F29D/D31S/A33K	4.40 / nd / 4.23	2/9 (4.54)
D30I/D62G/S63Q	3.91 / nd / nd	1/9 (3.75)
G59K/V64M/K65N	5.87 / 4.28 / 4.80	1/9 (4.94)
D30F/M34P/Y108D	4.88 / nd / nd	2/9 (4.07)
Y32Q/S55W/Y60L	nd / nd / nd	0/9
S52P/A61H/V99R	nd / nd / nd	1/9 (4.75)
S52P/K65M/F106D	nd / 6.13 / nd	5/9 (5.05)
Y32V/I51F/R101I	nd / 4.37 / nd	0/9
Y32M/M34Y/K65R	nd / nd / nd	0/9
S52R/G103Y/G104P	nd / 5.37 / nd	1/9 (4.04)
T28L/Y32S/N54F	nd / nd / nd	1/9 (4.10)
D31G/G59W/Y105A	4.34 / 4.69 / 3.73	4/9 (5.04)
N54L/G56Q/V99T	nd / 4.68 / 4.29	4/9 (4.19)
G26H/T28M/K65W	nd / nd / nd	0/9
D62C/G100Y	3.97 / 4.70 / nd	0/9
I51L/Y60S/D62V	nd / nd / nd	0/9
M34V/H35V/S52K	4.40 / nd / nd	1/9 (4.52)
S57F/Y108F	3.96 / 3.38 / nd	4/9 (4.30)
D62Y/G103D	nd / 2.78 / 3.76	1/9 (4.90)
G100R/R101N/Y105V	5.04 / nd / nd	0/9
A33K/S57V	nd / nd / nd	0/9
S63C	2.35 / 2.39 / 2.08	3/9 (4.22)
H35T/G50L/Y60A	6.11 / nd / 3.77	3/9 (4.71)
T28E/A61L/D107W	nd / nd / nd	0/9
D31P/Y32S/M34A	nd / nd / nd	0/9
F27W/H35M/K65W	nd / 5.72 / nd	2/9 (4.45)
G50T/G56R/S57P	5.16 / nd / 4.24	3/9 (5.04)
D30P/M34V	4.44 / nd / nd	0/9
N54M/S55Y/Y60H	nd / nd / nd	3/9 (5.55)
R101D/D107T/Y108R	3.50 / 3.07 / 3.13	0/9
G59Y/G100W/D107R	4.08 / nd / nd	2/9 (4.79)
A33E/Y105R	4.81 / 4.73 / nd	3/9 (3.97)
G26R/H35V	nd / nd / nd	0/9
H35G/N54M/G102Q	nd / 3.13 / nd	0/9
G26L/H35E/Y105S	nd / nd / nd	3/9 (4.98)
W53D	3.36 / 3.29 / 3.60	4/9 (4.56)
G26F/S52H/Y108A	nd / nd / nd	0/9
F27A/I51A/I58N	nd / nd / nd	0/9

The first 6 entries again:

changes	log10 Kd, replicates	signal with controls
F29D/D31S/A33K	4.40 / nd / 4.23	2/9 (4.54)
D30I/D62G/S63Q	3.91 / nd / nd	1/9 (3.75)
G59K/V64M/K65N	5.87 / 4.28 / 4.80	1/9 (4.94)
D30F/M34P/Y108D	4.88 / nd / nd	2/9 (4.07)
Y32Q/S55W/Y60L	nd / nd / nd	0/9
S52P/A61H/V99R	nd / nd / nd	1/9 (4.75)